Measured values as given in paper PMC6504641 (Chembiochem : a European journal of chemical biology, 2018).

Molecular target: GST-tagged full-length HRAS (UniProt Q61411)
Assay: SEC

Substance: GST-tagged full-length HRAS (from UniProt Q61411 1-189) (natural protein)
- stoichiometry N: 2
